Source: patent US20110275699A1 (UNIVERSITY OF CALIFORNIA, published 2011)

Amino acid sequences for entries named in this document (tags omitted). A change or cut given only in a name is not applied to a line headed by its entry.
UniProt Q02880: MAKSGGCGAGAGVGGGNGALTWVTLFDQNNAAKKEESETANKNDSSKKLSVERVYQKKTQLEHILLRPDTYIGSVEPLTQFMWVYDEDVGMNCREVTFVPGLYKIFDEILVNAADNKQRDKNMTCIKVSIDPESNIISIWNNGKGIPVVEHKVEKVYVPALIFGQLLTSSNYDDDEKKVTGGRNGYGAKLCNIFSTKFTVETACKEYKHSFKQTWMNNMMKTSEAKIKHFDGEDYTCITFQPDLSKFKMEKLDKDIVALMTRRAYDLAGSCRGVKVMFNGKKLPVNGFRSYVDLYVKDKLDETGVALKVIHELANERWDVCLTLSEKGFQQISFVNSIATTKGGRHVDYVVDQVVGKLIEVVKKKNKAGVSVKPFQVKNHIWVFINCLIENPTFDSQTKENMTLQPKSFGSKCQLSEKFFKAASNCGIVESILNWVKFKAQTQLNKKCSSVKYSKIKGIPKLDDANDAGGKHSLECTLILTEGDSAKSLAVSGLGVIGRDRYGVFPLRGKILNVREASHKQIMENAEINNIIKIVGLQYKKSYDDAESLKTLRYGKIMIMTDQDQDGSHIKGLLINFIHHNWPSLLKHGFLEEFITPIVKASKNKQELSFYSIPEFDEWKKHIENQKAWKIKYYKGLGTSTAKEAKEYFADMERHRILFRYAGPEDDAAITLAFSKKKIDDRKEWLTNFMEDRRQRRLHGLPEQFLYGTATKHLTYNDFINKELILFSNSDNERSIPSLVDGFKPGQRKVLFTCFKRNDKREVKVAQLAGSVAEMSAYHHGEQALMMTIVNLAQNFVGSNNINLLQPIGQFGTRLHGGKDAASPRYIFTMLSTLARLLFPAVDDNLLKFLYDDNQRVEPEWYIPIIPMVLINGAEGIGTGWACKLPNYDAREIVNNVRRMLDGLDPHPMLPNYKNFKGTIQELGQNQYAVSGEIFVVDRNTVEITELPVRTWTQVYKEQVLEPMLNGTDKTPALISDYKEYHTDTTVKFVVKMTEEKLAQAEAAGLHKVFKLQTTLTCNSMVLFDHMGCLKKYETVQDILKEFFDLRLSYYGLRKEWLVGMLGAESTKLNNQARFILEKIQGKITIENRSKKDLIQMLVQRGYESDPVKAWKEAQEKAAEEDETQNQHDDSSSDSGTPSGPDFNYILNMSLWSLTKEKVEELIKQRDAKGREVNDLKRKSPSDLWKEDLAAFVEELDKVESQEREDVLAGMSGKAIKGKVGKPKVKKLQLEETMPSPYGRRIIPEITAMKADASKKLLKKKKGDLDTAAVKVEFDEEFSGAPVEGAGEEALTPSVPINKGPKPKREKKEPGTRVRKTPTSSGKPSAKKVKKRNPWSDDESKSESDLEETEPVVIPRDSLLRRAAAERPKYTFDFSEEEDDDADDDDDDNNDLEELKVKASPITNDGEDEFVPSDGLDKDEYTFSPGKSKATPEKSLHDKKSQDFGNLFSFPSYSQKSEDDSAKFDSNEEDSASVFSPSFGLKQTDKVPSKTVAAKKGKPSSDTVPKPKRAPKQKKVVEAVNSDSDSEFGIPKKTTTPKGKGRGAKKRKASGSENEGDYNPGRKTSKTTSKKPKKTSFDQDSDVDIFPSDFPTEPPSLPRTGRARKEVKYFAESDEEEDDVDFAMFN

Experiments:
Assay in all cases: GST pull-down, direct interaction
[1] = biological target: TopoIIβ, in vitro translated 35S-labeled (UniProt Q02880, 35S-labeled)
Description: (§1) Purified USF-1 complex was subjected to autoradiography (left) for labeled proteins. GST protein alone was used as a control. USF-1-GST fusion protein was incubated with purified recombinant PARP-1 or PP1 before subjection to GST pull-down and immunoblotting (top right) for indicated proteins. GST and GSTUSF proteins after SDS-PAGE were stained with Coomassie blue (bottom right). (B) Detection of USF-1 complex: TAP eluates were separated by BN-PAGE and then subjected to Western blotting with anti-FLAG for USF-1. In lanes 2 and 3, supershift assays were carried out with 2 μg polyclonal anti-USF-1 (lanes 2) or 2 μg control polyclonal anti-GAPDH (lane 3). A minor faster migrating complex observed was probably due to partial dissociation of USF-1 interacting proteins from the complex during the sample preparation. (C) A representative ChIP for USF-1 interacting protein association to the p53 promoter in liver (left). p53 gene expression in livers from fasted or fed mice determined by RTqPCR (right). (D) IP of USF-1 interacting proteins from HepG2 cells treated with or without insulin at 100 nM for 30 min. Immunoprecipitates were Western blotted for each of the USF-1 interacting proteins. (E) ChIP analysis for biotin incorporation into 3′-ends of DNA breaks and DNA-PK and TopoIIβ binding to the control FAS coding region in livers from fasted or fed FAS-CAT transgenic or wild type mice.

[2] = biological target: T1, Ku80, in vitro translated 35S-labeled (UniProt P13010 1-732, limits assumed, 35S-labeled)
T1 sequence (looked up): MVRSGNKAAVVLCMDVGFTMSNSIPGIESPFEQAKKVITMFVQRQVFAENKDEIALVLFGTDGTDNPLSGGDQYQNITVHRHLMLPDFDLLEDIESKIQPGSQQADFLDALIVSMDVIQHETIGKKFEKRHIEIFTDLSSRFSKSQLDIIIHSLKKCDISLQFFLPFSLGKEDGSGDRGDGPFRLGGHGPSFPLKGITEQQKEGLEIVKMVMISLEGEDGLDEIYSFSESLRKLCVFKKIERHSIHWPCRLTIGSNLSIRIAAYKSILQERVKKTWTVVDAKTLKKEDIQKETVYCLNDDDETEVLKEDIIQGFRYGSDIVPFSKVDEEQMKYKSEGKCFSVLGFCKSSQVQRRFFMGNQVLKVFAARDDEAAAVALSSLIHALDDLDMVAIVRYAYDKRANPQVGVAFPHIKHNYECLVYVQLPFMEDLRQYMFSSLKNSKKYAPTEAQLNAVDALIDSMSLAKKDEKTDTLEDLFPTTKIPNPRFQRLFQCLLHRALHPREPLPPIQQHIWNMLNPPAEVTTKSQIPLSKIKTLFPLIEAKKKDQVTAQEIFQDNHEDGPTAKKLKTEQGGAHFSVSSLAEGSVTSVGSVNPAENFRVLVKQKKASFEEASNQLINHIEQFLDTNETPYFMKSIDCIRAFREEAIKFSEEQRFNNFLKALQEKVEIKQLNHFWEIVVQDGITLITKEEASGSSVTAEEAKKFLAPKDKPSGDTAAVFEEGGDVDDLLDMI
Description: as §1

[3] = biological target: T2, Ku70, in vitro translated 35S-labeled (UniProt P12956 1-609, limits assumed, 35S-labeled)
T2 sequence (looked up): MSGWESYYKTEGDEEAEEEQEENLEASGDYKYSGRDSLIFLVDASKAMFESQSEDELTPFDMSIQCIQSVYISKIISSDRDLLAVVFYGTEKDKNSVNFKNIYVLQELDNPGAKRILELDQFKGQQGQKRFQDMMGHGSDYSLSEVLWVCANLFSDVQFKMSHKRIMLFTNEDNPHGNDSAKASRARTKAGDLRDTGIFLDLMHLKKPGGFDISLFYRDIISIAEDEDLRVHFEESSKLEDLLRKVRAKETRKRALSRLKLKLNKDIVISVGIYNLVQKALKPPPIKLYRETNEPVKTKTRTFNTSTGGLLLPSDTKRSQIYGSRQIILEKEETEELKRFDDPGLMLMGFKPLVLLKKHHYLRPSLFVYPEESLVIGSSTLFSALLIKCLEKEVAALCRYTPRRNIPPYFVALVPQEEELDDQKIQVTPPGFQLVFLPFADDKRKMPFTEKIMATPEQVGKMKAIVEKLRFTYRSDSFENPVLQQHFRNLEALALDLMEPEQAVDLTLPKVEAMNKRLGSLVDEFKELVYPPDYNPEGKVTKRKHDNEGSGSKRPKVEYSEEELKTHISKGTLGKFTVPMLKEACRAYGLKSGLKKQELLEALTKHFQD
Description: as §1

Measured: binding result

B1: Bacterially expressed USF-1-GST fusion protein (other, UniProt P22415 1-310, looked up)
chain: MKGQQKTAETEEGTVQIQEGAVATGEDPTSVAIASIQSAATFPDPNVKYVFRTENGGQVMYRVIQVSEGQLDGQTEGTGAISGYPATQSMTQAVIQGAFTSDDAVDTEGTAAETHYTYFPSTAVGDGAGGTTSGSTAAVVTTQGSEALLGQATPPGTGQFFVMMSPQEVLQGGSQRSIAPRTHPYSPKSEAPRTTRDEKRRAQHNEVERRRRDKINNWIVQLSKIIPDCSMESTKSGQSKGGILSKACDYIQELRQSNHRLSEELQGLDQLQLDNDVLRQQVEDLKNKNLLLRAQLRHHGLEVVIKNDSN
notes: also called GSTUSF; not shown: GST
no binding: [1] | [2] | [3]
